# In ChEMBL document CHEMBL5316271, “Microtubule-Stabilizing 1,2,4-Triazolo[1,5-a]pyrimidines as Candidate Therapeutics for Neurodegenerative Disease: Matched Molecular Pair Analyses and Computational Studies Reveal New Structure-Activity Insights” (J Med Chem, 2023):
# Chains of the proteins cited; added tags and fusions are not shown. Lines headed by an entry give the natural chain unless they say otherwise; changes in a name come on top.
# UniProt P68371: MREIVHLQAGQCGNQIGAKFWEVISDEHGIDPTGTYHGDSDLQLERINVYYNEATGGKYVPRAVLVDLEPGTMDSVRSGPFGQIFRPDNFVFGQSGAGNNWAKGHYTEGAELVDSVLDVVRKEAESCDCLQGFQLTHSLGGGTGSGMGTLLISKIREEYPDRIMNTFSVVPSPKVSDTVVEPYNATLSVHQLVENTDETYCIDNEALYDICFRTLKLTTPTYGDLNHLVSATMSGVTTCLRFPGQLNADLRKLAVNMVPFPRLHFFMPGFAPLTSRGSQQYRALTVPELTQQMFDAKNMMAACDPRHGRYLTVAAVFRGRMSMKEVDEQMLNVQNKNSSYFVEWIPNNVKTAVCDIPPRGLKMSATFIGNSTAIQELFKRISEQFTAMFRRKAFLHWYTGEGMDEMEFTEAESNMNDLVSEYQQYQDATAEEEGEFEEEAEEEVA
# UniProt Q9H4B7: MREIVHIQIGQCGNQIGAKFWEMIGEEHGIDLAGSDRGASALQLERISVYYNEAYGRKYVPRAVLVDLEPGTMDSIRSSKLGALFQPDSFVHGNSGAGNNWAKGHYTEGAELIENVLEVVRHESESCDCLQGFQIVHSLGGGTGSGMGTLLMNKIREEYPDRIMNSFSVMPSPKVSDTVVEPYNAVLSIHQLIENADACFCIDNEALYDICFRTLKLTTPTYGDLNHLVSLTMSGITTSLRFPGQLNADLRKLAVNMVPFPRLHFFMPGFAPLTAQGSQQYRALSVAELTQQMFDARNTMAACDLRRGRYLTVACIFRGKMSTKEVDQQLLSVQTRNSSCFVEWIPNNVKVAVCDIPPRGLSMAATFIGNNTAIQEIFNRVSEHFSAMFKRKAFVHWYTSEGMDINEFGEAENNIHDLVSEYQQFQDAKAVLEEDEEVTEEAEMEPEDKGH
# UniProt P0DPH7: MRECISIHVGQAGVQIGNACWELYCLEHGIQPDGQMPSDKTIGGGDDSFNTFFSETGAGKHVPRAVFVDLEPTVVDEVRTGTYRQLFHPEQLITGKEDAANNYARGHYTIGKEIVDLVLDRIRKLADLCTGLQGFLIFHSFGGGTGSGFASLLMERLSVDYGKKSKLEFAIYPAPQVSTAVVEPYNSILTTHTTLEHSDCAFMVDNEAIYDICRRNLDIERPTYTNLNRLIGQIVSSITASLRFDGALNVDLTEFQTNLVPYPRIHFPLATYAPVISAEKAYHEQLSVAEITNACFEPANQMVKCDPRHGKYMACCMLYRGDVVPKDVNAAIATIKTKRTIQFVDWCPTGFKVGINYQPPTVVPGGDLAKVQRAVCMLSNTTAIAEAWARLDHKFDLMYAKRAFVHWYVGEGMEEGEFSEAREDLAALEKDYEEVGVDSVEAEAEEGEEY
# UniProt P68366: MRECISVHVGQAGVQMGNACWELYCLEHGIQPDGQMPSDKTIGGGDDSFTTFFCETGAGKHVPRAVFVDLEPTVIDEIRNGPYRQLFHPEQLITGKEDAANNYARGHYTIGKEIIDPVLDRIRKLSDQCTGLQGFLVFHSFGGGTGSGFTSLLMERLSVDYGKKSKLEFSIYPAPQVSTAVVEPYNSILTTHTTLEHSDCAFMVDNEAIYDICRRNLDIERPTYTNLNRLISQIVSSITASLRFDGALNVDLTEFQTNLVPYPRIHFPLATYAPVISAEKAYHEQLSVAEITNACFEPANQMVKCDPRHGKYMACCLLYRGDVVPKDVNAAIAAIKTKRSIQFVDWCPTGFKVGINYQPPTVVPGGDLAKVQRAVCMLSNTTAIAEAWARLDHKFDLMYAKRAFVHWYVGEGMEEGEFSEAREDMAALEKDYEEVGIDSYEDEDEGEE
# UniProt Q13509: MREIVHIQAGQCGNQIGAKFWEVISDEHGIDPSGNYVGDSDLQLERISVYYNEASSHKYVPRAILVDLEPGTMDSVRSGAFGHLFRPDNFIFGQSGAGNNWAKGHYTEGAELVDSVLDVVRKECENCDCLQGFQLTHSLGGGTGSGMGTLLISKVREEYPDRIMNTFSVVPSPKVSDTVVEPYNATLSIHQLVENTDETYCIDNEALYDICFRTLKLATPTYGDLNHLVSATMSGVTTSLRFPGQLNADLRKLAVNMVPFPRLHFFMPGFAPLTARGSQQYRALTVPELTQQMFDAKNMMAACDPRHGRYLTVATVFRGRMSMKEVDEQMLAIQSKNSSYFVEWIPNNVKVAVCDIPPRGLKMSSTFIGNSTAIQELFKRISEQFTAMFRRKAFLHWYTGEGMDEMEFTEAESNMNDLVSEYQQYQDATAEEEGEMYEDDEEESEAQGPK
# UniProt Q71U36: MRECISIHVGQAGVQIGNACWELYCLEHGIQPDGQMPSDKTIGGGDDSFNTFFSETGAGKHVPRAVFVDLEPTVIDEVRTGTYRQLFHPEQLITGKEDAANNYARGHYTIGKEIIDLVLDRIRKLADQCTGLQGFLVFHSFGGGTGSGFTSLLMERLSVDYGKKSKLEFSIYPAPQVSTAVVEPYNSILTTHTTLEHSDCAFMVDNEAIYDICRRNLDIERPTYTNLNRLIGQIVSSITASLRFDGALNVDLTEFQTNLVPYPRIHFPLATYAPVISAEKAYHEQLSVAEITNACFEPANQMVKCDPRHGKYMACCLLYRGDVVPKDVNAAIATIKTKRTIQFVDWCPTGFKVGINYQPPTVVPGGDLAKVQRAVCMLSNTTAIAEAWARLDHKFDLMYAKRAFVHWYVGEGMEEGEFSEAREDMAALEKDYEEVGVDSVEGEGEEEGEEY
# UniProt P04350: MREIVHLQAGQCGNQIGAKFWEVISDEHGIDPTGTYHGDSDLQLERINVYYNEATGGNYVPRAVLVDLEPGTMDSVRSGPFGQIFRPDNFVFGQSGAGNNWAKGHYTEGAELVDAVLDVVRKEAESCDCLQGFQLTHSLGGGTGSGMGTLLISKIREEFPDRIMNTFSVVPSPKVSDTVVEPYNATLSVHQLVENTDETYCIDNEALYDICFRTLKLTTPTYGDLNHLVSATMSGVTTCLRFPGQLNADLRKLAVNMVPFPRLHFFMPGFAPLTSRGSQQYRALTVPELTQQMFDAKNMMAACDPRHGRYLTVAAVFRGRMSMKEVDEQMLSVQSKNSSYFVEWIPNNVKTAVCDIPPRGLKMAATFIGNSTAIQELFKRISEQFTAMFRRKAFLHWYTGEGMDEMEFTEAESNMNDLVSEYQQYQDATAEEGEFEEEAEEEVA
# UniProt Q3ZCM7: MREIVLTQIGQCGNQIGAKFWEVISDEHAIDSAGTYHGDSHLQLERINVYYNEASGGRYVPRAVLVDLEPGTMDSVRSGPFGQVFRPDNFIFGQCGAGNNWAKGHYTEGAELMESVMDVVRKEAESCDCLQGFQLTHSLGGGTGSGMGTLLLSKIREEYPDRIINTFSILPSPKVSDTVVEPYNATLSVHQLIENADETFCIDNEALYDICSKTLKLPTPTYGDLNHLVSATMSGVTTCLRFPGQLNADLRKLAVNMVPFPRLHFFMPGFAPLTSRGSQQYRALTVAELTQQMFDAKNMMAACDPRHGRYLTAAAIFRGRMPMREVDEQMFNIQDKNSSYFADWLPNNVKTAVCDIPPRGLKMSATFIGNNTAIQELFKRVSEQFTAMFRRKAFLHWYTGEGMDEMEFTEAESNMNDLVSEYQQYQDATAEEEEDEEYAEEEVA
# UniProt P07437: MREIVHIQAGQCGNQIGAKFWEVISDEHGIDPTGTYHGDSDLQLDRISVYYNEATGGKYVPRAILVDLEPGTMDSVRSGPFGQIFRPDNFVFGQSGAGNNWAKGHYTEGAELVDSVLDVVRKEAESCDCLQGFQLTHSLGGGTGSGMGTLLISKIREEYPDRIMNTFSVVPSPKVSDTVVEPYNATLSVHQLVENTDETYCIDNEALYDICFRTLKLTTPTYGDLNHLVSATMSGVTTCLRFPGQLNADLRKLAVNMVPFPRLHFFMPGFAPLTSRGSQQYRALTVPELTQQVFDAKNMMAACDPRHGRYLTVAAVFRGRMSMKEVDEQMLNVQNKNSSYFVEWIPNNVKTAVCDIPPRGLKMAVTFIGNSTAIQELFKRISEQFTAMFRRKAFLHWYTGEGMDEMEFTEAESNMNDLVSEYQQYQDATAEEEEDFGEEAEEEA
# UniProt P68363: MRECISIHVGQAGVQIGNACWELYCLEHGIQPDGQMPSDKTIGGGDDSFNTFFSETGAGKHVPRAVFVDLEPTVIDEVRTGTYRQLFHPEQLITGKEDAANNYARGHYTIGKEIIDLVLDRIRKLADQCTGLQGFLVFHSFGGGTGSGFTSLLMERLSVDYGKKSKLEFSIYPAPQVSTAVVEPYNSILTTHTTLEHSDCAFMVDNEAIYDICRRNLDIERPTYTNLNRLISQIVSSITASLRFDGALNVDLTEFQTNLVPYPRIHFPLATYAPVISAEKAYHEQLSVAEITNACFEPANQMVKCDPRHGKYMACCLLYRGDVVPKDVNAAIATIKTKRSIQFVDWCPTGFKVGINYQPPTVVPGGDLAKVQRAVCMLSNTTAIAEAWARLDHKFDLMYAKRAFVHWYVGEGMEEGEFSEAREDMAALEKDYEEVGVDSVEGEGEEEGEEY
# UniProt Q6PEY2: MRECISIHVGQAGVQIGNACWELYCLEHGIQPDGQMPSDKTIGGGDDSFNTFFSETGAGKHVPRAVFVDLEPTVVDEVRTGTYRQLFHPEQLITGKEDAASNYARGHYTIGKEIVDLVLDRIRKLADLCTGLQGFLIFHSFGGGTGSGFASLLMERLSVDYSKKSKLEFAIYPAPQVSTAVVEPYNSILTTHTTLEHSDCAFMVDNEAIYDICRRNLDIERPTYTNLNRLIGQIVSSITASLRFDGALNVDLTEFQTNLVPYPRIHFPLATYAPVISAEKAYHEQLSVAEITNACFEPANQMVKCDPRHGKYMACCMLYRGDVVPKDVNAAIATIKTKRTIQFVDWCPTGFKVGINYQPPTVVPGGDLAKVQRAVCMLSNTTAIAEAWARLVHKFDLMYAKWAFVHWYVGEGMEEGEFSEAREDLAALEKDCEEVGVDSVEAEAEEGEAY
# UniProt Q13885: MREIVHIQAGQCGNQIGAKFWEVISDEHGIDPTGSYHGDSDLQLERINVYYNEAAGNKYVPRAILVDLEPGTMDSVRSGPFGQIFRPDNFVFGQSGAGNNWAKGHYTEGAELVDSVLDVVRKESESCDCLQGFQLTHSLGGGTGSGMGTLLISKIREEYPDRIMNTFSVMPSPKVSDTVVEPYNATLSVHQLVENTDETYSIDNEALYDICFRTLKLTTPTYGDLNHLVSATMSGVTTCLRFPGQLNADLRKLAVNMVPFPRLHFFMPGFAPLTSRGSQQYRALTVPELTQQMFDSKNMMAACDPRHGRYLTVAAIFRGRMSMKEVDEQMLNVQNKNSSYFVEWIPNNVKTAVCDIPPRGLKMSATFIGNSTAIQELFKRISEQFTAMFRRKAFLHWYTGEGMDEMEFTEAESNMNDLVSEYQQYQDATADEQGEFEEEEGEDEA
# UniProt Q9BVA1: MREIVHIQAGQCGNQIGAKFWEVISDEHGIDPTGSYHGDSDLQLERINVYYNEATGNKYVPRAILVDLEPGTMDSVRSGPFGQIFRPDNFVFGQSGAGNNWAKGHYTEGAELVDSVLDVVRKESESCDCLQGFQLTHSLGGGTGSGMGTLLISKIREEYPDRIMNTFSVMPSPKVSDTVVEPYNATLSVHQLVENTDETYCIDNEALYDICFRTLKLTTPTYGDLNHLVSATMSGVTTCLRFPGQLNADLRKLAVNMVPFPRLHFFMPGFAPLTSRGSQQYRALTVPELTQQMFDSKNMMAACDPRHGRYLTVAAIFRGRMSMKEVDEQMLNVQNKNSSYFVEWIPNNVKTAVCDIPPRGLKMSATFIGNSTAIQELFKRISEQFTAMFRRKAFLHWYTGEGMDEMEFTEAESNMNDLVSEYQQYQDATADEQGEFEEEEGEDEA
# UniProt Q9BUF5: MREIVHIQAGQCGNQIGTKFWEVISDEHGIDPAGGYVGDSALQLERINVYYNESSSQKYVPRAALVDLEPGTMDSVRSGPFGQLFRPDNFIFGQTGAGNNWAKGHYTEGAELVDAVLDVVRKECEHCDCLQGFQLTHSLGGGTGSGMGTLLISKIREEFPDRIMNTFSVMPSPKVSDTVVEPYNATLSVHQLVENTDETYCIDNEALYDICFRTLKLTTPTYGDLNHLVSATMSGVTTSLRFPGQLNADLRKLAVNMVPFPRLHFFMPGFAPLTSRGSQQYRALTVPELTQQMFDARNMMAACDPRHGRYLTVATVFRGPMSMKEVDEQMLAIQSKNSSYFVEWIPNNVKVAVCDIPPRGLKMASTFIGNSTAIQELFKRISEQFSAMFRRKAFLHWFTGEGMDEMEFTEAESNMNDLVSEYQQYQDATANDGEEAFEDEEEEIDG
# Tests used:
# Format in all cases: cell-based
# [1] = molecular target: T1, Tubulin (Homo sapiens) (UniProt P68371+Q9H4B7+P0DPH7+P68366+Q13509+Q71U36+P04350+Q3ZCM7+P07437+P68363+Q9BQE3+Q6PEY2+Q13885+Q9BVA1+Q9BUF5); experiment: Induction of microtubule stabilization in human HEK293-A cells assessed as fold change in cellular acetylated alpha-tubulin level at 30 uM incubated for 4 hrs by ELISA relative to cevipabulin
# [2] = molecular target: T1, Tubulin (Homo sapiens); experiment: Induction of microtubule stabilization in human HEK293-A cells assessed as fold change in total alpha-tubulin level reduction at 30 uM incubated for 4 hrs by ELISA relative to control
# [3] = molecular target: T1, Tubulin (Homo sapiens); experiment: Induction of microtubule stabilization in human HEK293-A cells assessed as fold change as increase in cellular acetylated alpha-tubulin level at 30 uM incubated for 4 hrs by ELISA relative to control
structure (smiles),measurement,setting,value
C[C@H](Nc1c(-c2c(F)cc(F)cc2F)c(Cl)nc2ncnn12)C(C)(C)C,fold change (FC),[1],0.55
same,fold change (FC),[2],1.22
same,fold change (FC),[3],4.29
